Values of other authors in article PMC3568227.

Chains of the proteins cited; added tags and fusions are not shown. Lines headed by an entry give the natural chain unless they say otherwise; changes in a name come on top.
UniProt Q13421: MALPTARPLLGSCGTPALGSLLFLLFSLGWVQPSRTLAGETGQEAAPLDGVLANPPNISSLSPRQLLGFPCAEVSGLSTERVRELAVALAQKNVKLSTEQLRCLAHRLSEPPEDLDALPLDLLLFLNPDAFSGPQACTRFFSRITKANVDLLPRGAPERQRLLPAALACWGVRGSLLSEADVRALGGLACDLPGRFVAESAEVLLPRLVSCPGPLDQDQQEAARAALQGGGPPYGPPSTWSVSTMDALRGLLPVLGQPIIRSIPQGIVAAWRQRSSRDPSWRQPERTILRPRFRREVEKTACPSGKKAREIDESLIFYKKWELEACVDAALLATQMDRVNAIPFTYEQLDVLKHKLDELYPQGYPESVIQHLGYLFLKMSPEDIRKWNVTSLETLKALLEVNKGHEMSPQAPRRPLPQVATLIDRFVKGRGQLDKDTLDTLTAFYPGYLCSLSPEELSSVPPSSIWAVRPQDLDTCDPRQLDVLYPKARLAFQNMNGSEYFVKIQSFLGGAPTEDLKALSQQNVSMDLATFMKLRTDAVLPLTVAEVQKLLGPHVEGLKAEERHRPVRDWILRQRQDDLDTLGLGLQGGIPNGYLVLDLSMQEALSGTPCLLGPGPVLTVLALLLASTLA

Target: MUC16 (Homo sapiens) (UniProt Q8WXI7)

Kd: 5 nM
Substance: mesothelin (from UniProt Q13421)
